# Experimental data taken from ChEMBL document CHEMBL1134644 (J Med Chem, 2001).
# Sequences of proteins named here, by UniProt entry; tags and fusion partners are left off.
# UniProt P0DMS8, whole entry: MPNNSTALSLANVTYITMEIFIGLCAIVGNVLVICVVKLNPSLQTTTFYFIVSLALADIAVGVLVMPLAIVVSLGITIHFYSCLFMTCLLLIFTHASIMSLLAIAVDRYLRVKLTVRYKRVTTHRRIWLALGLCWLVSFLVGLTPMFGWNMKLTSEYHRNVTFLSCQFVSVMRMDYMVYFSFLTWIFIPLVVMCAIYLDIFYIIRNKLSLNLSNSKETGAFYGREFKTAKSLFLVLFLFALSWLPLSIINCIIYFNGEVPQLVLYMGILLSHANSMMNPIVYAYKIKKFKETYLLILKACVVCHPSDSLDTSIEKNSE
# UniProt P0DMS8, whole entry H272E: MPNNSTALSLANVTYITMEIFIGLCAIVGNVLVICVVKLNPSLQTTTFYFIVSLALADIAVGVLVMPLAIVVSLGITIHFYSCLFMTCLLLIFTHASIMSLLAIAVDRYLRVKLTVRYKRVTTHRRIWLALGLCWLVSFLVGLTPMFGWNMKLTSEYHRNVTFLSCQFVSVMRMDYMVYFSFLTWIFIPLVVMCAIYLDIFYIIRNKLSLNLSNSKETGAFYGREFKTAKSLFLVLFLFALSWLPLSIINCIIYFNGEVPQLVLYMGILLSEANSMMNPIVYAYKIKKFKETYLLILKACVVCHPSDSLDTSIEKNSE
# Experiments:
# [1] = target: Adenosine receptor A3 (Homo sapiens, UniProt P0DMS8); experiment: Binding affinity at wild-type Adenosine A3 receptor expressed in COS-7 cells; format: cell-based
# [2] = target: Adenosine receptor A3 (Homo sapiens, UniProt P0DMS8, H272E); experiment: Binding affinity at Mutant (H272E) human adenosine A3 receptor expressed in COS-7 cells; format: cell-based
structure (smiles),measurement,setting,value
CNC(=O)[C@H]1O[C@@H](n2cnc3c(NCc4ccc(N)c(I)c4)ncnc32)[C@H](O)[C@@H]1O,Ki,[1],1.2 nM
same,Ki,[2],2.1 nM
